The source of these data is patent US20020019394A1, “Bicyclic sulfonyl amino inhibitors of factor Xa” (priority 2000, published 2002).

Protein sequences, listed by entry. Tags and fused reporters are not part of them. Residues count along the entry.
UniProt P00742, 41-179 limits assumed: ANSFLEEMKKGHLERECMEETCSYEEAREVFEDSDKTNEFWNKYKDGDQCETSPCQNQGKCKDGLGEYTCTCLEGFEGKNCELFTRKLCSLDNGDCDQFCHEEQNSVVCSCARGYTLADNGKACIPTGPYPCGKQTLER
UniProt P00742, 235-488 limits assumed: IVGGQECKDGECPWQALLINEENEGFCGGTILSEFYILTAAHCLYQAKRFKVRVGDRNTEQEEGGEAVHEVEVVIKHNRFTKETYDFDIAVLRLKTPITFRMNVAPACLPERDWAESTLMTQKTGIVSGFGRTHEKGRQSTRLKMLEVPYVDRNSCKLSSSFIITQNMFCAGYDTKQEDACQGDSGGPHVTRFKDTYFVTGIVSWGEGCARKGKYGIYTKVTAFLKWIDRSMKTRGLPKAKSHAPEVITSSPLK

The structures appear in SMILES notation.

Broadly, the IC50 is the midpoint of a concentration-inhibition curve. Low values mean higher potency, high ones lower potency.

The target of one assay is prothrombinase complex (Homo sapiens, UniProt P00742). The assay is described as follows: Prothrombinase inhibition assay, plasma free system. The format is biochemical. To be noted: Table 4. How it is done: The prothrombinase inhibition assay is performed in a plasma free system with modifications to the method described by Sinha, U. et al., Thromb. […] Specifically, the activity of the prothrombinase complex is determined by measuring the time course of thrombin generation using the p-nitroanilide substrate Chromozym TH. […] Aliquots from the complex-inhibitor mixture are added to prothrombin (1 nM) and Chromozym TH (0.1 mM). […] Eight different concentrations of inhibitor are assayed in duplicate. A standard curve of thrombin generation by an equivalent amount of untreated complex is used for determination of percent inhibition.

The target in a further assay is factor Xa (Homo sapiens, UniProt P00742). The assay is described as follows: Factor Xa amidolytic assay (chromogenic substrate S-2765).

Consider `CC(=N)N1CCC(Oc2ccc(N(Cc3cc(C)nn3-c3cccc(C(=N)N)c3)S(C)(=O)=O)cc2)CC1` [Compound 16], for which the IC50 against prothrombinase complex was more than 11000 nM; against factor Xa, 6.29 µM.
